# Assay results: FireProtDB (doi:10.1038/nsb0696-497)
# B1: Alpha-1-antitrypsin, P01009 (parent)
# chain: MPSSVSWGILLLAGLCCLVPVSLAEDPQGDAAQKTDTSHHDQDHPTFNKITPNLAEFAFSLYRQLAHQSNSTNIFFSPVSIATAFAMLSLGTKADTHDEILEGLNFNLTEIPEAQIHEGFQELLRTLNQPDSQLQLTTGNGLFLSEGLKLVDKFLEDVKKLYHSEAFTVNFGDTEEAKKQINDYVEKGTQGKIVDLVKELDRDTVFALVNYIFFKGKWERPFEVKDTEEEDFHVDQVTTVKVPMMKRLGMFNIQHCKKLSSWVLLMKYLGNATAIFFLPDEGKLQHLENELTHDIITKFLENEDRRSASLHLPKLSITGTYDLKSVLGQLGITKVFSNGADLSGVTEEAPLKLSKAVHKAVLTIDEKGTEAAGAMFLEAIPMSIPPEVKFNKPFVFLMIEQNTKSPLFMGKVVNPTQK
# Variants of: B1
# Settings: Homo sapiens; pH 6.5; 25 °C; Urea; CD; Potassium phosphate 10 mM; NaCl 50 mM; reversible: Unknown; structure 1QLP; whole UniProt chain shown
row,Variant,ddG of mutation (higher = less stable) [kcal/mol]
1,MPSSVSWGILLLAGLCCLVPVSLAEDPQGDAAQKTDTSHHDQDHPTFNKITPNLAEFAFSLYRQLAHQSNSTNIFFSPVSIATAFAMLSLGAKADTHDEILEGLNFNLTEIPEAQIHEGFQELLRTLNQPDSQLQLTTGNGLFLSEGLKLVDKFLEDVKKLYHSEAFTVNFGDTEEAKKQINDYVEKGTQGKIVDLVKELDRDTVFALVNYIFFKGKWERPFEVKDTEEEDFHVDQVTTVKVPMMKRLGMFNIQHCKKLSSWVLLMKYLGNATAIFFLPDEGKLQHLENELTHDIITKFLENEDRRSASLHLPKLSITGTYDLKSVLGQLGITKVFSNGADLSGVTEEAPLKLSKAVHKAVLTIDEKGTEAAGAMFLEAIPMSIPPEVKFNKPFVFLMIEQNTKSPLFMGKVVNPTQK [T92A],-1
2,MPSSVSWGILLLAGLCCLVPVSLAEDPQGDAAQKTDTSHHDQDHPTFNKITPNLAEFAFSLYRQLAHQSNSTNILFSPVSIATAFAMLSLGTKADTHDEILEGLNFNLTEIPEAQIHEGFQELLRTLNQPDSQLQLTTGNGLFLSEGLKLVDKFLEDVKKLYHSEAFTVNFGDTEEAKKQINDYVEKGTQGKIVDLVKELDRDTVFALVNYIFFKGKWERPFEVKDTEEEDFHVDQVTTVKVPMMKRLGMFNIQHCKKLSSWVLLMKYLGNATAIFFLPDEGKLQHLENELTHDIITKFLENEDRRSASLHLPKLSITGTYDLKSVLGQLGITKVFSNGADLSGVTEEAPLKLSKAVHKAVLTIDEKGTEAAGAMFLEAIPMSIPPEVKFNKPFVFLIIEQNTKSPLFMGKVVNPTQK [F75L M398I],-3.6
3,MPSSVSWGILLLAGLCCLVPVSLAEDPQGDAAQKTDTSHHDQDHPTFNKITPNLAEFAFSLYRQLAHQSNSTNIFFSPVSIATAFAMLSLGTKGDTHDEILEGLNFNLTEIPEAQIHEGFQELLRTLNQPDSQLQLTTGNGLFLSEGLKLVDKFLEDVKKLYHSEAFTVNFGDTEEAKKQINDYVEKGTQGKIVDLVKELDRDTVFALVNYIFFKGKWERPFEVKDTEEEDFHVDQVTTVKVPMMKRLGMFNIQHCKKLSSWVLLMKYLGNATAIFFLPDEGKLQHLENELTHDIITKFLENEDRRSASLHLPKLSITGTYDLKSVLGQLGITKVFSNGADLSGVTEEAPLKLSKAVHKAVLTIDEKGTEAAGAMFLEAIPMSIPPEVKFNKPFVFLMIEQNTKSPLFMGKVVNPTQK [A94G],-1.6
4,MPSSVSWGILLLAGLCCLVPVSLAEDPQGDAAQKTDTSHHDQDHPTFNKITPNLAEFAFSLYRQLAHQSNSTNIFFSPVSIATAFAMLSLGTKADTHDEILEGLNFNLTEIPEAQIHEGFQELLRTLNQPDSQLQLTTGNGLFLSEGLKLVDKFLEDVKKLYHSEAFTVNFGDTEEAKKQINDYVEKGTQGKIVDLVKELDRDTVFALVNYIFFKGKWERPFEVKDTEEEDFHVDQVTTVKVPMMKRLGMFNIQHCKKLSSWVLLMKYLGNATAIFFLPDEGKLQHLENELTHDIITKFLENEDRRSASLHLPKLSITGTYDLKSVLGQLGITKVFSNGADLSGVTEEAPLKLSKAVHKAVLTIDEKGTEAAGAMFLEAIPMSIPPEVKFNKPFVFLIIEQNTKSPLFMGKVVNPTQK [M398I],-2.3
5,MPSSVSWGILLLAGLCCLVPVSLAEDPQGDAAQKTDTSHHDQDHPTFNKITPNLAEFAFSLYRQLAHQSNSTNIFFSPVSIATAFAMLSLGTKADTHDEILEGLNFNLTEIPEAQIHEGFQELLRTLNQPDSQLQLTTGNGLFLSEGLKLVDKFLEDVKKLYHSEAFTVNFGDTEEAKKQINDYVEKGTQGKIVDLVKELDRDTVFALVNYIFFKGKWERPFEVKDTEEEDFHVDQVTTVKVPMMKRLGMFNIQHCKKLSSWVLLMKYLGNATAIFFLPDEGKLQHLENELTHDIITKFLENEDRRSASLHLPKLSITGTYDLKSVLGQLGITKVFSNGADLSGVTEEAPLKLSKAVHKAVLTIDEKGTEAAGAMFLEAIPMSIPPEVKFNKPFVFLMIEQNTKSPLFMGRVVNPTQK [K411R],-1
6,MPSSVSWGILLLAGLCCLVPVSLAEDPQGDAAQKTDTSHHDQDHPTFNKITPNLAEFAFSLYRQLAHQSNSTNIFFSPVSIAAAFAMLSLGTKADTHDEILEGLNFNLTEIPEAQIHEGFQELLRTLNQPDSQLQLTTGNGLFLSEGLKLVDKFLEDVKKLYHSEAFTVNFGDTEEAKKQINDYVEKGTQGKIVDLVKELDRDTVFALVNYIFFKGKWERPFEVKDTEEEDFHVDQVTTVKVPMMKRLGMFNIQHCKKLSSWVLLMKYLGNATAIFFLPDEGKLQHLENELTHDIITKFLENEDRRSASLHLPKLSITGTYDLKSVLGQLGITKVFSNGADLSGVTEEAPLKLSKAVHKAVLTIDEKGTEAAGAMFLEAIPMSIPPEVKFNKPFVFLMIEQNTKSPLFMGKVVNPTQK [T83A],-1
7,MPSSVSWGILLLAGLCCLVPVSLAEDPQGDAAQKTDTSHHDQDHPTFNKITPNLAEFAFSLYRQLAHQSNSTNIFFSPVSIATAFAMLSLGTKADTHDEILEGLNFNLTEIPEAQIHEGFQELLRTLNQPDSQLQLTTGNGLFLSEGLKLVDKFLEDVKKLYHSEAFTVNFGDTEEAKKQINDYVEKGTQGKIVDLVKELDRDTVFALVNYIFFKGKWERPFEVKDTEEEDFHVDQVTTVKVPMMKRLGMFNIQHCKKLSSWVLLMKYLGNATAIFFLPDEGKLQHLENELTHDIITKFLENEDRRSASLHLPKLSITGTYDLKSVLGQLGITKVFSNGADLSGVTEEAPLKLSKAVHKAVLTIDEKGTEAAGAMFLEAIPMSIPPEVKFNKPFVFLMIEQNTKAPLFMGRVVNPTQK [S405A K411R],-2.1
8,MPSSVSWGILLLAGLCCLVPVSLAEDPQGDAAQKTDTSHHDQDHPTFNKITPNLAEFAFSLYRQLAHQSNSTNILFSPVSIATAFAMLSLGTKADTHDEILEGLNFNLTEIPEAQIHEGFQELLRTLNQPDSQLQLTTGNGLFLSEGLKLVDKFLEDVKKLYHSEAFTVNFGDTEEAKKQINDYVEKGTQGKIVDLVKELDRDTVFALVNYIFFKGKWERPFEVKDTEEEDFHVDQVTTVKVPMMKRLGMFNIQHCKKLSSWVLLMKYLGNATAIFFLPDEGKLQHLENELTHDIITKFLENEDRRSASLHLPKLSITGTYDLKSVLGQLGITKVFSNGADLSGVTEEAPLKLSKAVHKAVLTIDEKGTEAAGAMFLEAIPMSIPPEVKFNKPFVFLMIEQNTKSPLFMGKVVNPTQK [F75L],-2.1
9,MPSSVSWGILLLAGLCCLVPVSLAEDPQGDAAQKTDTSHHDQDHPTFNKITPNLAEFAFSLYRQLAHQSNSTNIFFSPVSIAAAFAMLSLGAKGDTHDEILEGLNFNLTEIPEAQIHEGFQELLRTLNQPDSQLQLTTGNGLFLSEGLKLVDKFLEDVKKLYHSEAFTVNFGDTEEAKKQINDYVEKGTQGKIVDLVKELDRDTVFALVNYIFFKGKWERPFEVKDTEEEDFHVDQVTTVKVPMMKRLGMFNIQHCKKLSSWVLLMKYLGNATAIFFLPDEGKLQHLENELTHDIITKFLENEDRRSASLHLPKLSITGTYDLKSVLGQLGITKVFSNGADLSGVTEEAPLKLSKAVHKAVLTIDEKGTEAAGAMFLEAIPMSIPPEVKFNKPFVFLMIEQNTKSPLFMGKVVNPTQK [T83A T92A A94G],-3.4
10,MPSSVSWGILLLAGLCCLVPVSLAEDPQGDAAQKTDTSHHDQDHPTFNKITPNLAEFAFSLYRQLAHQSNSTNIFFSPVSIATAFAMLSLGTKADTHDEILEGLNFNLTEIPEAQIHEGFQELLRTLNQPDSQLQLTTGNGLFLSEGLKLVDKFLEDVKKLYHSEAFTVNFGDTEEAKKQINDYVEKGTQGKIVDLVKELDRDTVFALVNYIFFKGKWERPFEVKDTEEEDFHVDQVTTVKVPMMKRLGMFNIQHCKKLSSWVLLMKYLGNATAIFFLPDEGKLQHLENELTHDIITKFLENEDRRSASLHLPKLSITGTYDLKSVLGQLGITKVFSNGADLSGVTEEAPLKLSKAVHKAVLTIDEKGTEAAGAMFLEAIPMSIPPEVKFNKPFVFLMIEQNTKAPLFMGKVVNPTQK [S405A],-1
